For assay [1], the target named is Trx-6×His-BCL6 (human BCL6 BTB domain covering amino-acid sequence 5-129) (Homo sapiens (Human), UniProt P41182). The assay can be described thus: HTRF in vitro assay (BCL6 / BCOR-AF633 peptide). It is filed as binding. The following applies: further generated data; 1 nM Trx-6×His-BCL6, 300 nM BCOR-AF633 peptide, 0.5 nM anti-6×His-Terbium cryptate. As for the experimental part: The % inhibition at each concentration was calculated by normalising FRET ratio to the appropriate high (DMSO with all reagents) and low (DMSO without BCL6) controls.
Background: In TR-FRET formats the signal depends on donor and acceptor labels being close together.

The next assay has as its target endogenous BCL6 protein (Homo sapiens (Human), UniProt P41182). The assay can be described thus: Immunofluorescence-based BCL6 degradation assay. It is filed as cell-based. The following applies: 2 hours with compound. As for the experimental part:
Immunofluorescence-Based BCL6 Degradation Assay
DC50 values (compound concentration at which 50% of endogenous BCL6 protein is degraded) were determined in SUDHL-4 cells (American Type Culture Collection) in an immunofluorescence-based assay using an InCell2200 high content imaging system (GE Healthcare). […] After 20 hours cell culture at 37° C./CO2 incubator, compounds were dispensed in the cell culture plate using ECHO550 acoustic dispenser (Labcyte, Inc.), as 8 point-concentration response (ranging from 5 nM to 10 μM) in 0.67% final DMSO concentration. Cells were incubated with compound for 2 hours at 37° C./CO2 incubator followed by fixation in 4.5% formaldehyde (37% formaldehyde solution, Sigma catalogue F8775) at room temperature for 15 min. […] Blocking and cell permeabilisation were performed by incubating the fixed cells for 1 hour at room temperature in 1×TBS, 5% BSA, 1% Triton X100, followed by three washes on PW384 plate washer. Primary and secondary antibodies were prepared in 1×TBS, 1% BSA, 0.2% Triton X100. […] BCL6 expression in the absence or presence of compound was detected on InCell2200 with 20× objective and quantified on InCell Analyser 3.7.2 workstation (GE Healthcare). The % response at each concentration was calculated by normalising BCL6 expression in the presence of compound to the appropriate high (DMSO) and low (DMSO with 7 μM CCT369260) controls.

As for `Cn1c(=O)n(CCC(C)(C)O)c2cc(Nc3nc(N4CCC(F)(F)C(CO)C4)ncc3Cl)ccc21` (centres unmarked) [Example 35a, 5-((5-chloro-2-(4,4-difluoro-3-(hydroxymethyl)piperidin-1-yl)pyrimidin-4-yl)amino)-3-(3-hydroxy-3-methylbutyl)-1-methyl-1,3-dihydro-2H-benzo[d]imidazol-2-one], the “HTRF pIC50” value in assay [1] was determined as 7.15. For the same molecule, the “Degradation assay in SU-DHL4 cells (pDC50)” value on endogenous BCL6 protein is recorded as 6.92.

Values taken from US12110286B2, “Benzimidazolone derived inhibitors of BCL6” (Cancer Research Technology Limited, priority 2017, dated 2024).
